High-throughput results: PubChem, National Center for Advancing Translational Sciences (NCATS)
KDM4E inh: blocks human JMJD2E demethylase activity; Potency, µM (titrated, usually from 57.1 µM), hits mostly inhibitors; actives 1.6% (n = 230,000); B2RXH2; JMJD2E catalytic domain, FDH-coupled NADH fluorescence (FDH is formaldehyde dehydrogenase); also: nearly all actives have a fitted effect of over 50% in size
Lamin A splicing: changes lamin A minigene splicing in HeLa cells | HeLa LMNA splicing GFP/RFP minigene ratio, 48 h | Potency, µM (series often up to 46.1 µM), usual class: inhibitors | actives 0.01% (n = 200,000); active = well fitted inhibition curve with a large enough effect in the signal ratio, with a control signal flat, not every such curve was filed as active; inconclusive = small, poorly fitted or top-dose-only effect, or effect the other way, or a change in a side signal; the % refers to the signal ratio
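Read-out is the ratio of GFP to DsRed2 object intensity, acquired by 488 nm laser-scanning cytometry on HeLa lamin A-EGFP minigene reporter cells. Compound incubation 48 hrs at 37 °C in Opti-MEM with 2% FBS; DMSO 0.5% final.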
ALDH1A1 inh: ALDH1A1 (human) enzyme inhibition; Purified ALDH1A1, NADH fluorescence, propionaldehyde substrate; Potency, µM (titrated, usually from 75.3 µM), actives largely listed as inhibitors; actives 7.3% (n = 220,000); AID 1030; active = well fitted inhibition curve with a large enough effect, not every such curve was filed as active; inconclusive = small, poorly fitted or top-dose-only effect, or another doubt; inactive = no such curve, though single readings can be large or run the other way
miR-21 reporter: raises the signal of a miR-21 reporter | Potency, µM (doses to about 38.3 µM) | HeLa miR-21 FLuc reporter, luciferase, 48 h | AID 2288 | 340,000 tested, under 10 active; active = well fitted rising curve with a large enough effect; inconclusive = small, poorly fitted or top-dose-only effect; inactive = no such curve, though single readings can be large or run the other way;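 also: miR-21 action dims this reporter so a rising signal means less miR-21 action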
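Luminescence from a firefly luciferase reporter carrying a miR-21 binding site downstream, stably expressed under a CMV promoter in HeLa cells that make miR-21 endogenously, reports miRNA modulation after 48 h compound exposure up to approximately 40uM final.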
Sfp PPTase inh: inhibitors of Bacillus subtilis Sfp phosphopantetheinyl transferase; Q9F4F7; Biochemical Sfp PPTase activity, qHTS; Potency, µM, usual class: inhibitors; actives 3.5% (n = 310,000); AID 1490;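 also: the enzyme is Sfp with the accession as filed and its product quenches rhodamine fluorescence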
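Buffer: 50 mM Hepes-Na pH 7.6, 10 mM MgCl2, 0.01% Nonidet P-40, 0.01% BSA. Enzyme 15 nM, pre-exposed to compound 15 min; substrates then added and fluorescence change tracked over 30 min.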
G9a inh: blocks human histone lysine methyltransferase G9a. Q96KQ7. actives 8.8% (n = 350,000). Potency, µM (top dose mostly 102 µM), most hits filed as inhibitors. G9a H3K9 monomethylation, AlphaScreen, 2 h; also: nearly all actives have a fitted effect of over 75% in size
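AlphaScreen read-out: biotin-H3K9 peptide (500 nM) methylation by 20 nM enzyme with 20 uM SAM, 2 h at room temperature after 15 min compound preincubation; anti-monomethyl H3K9 antibody plus donor/acceptor beads, 10 min dark.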
Each line names hits and unclear results; the compound was inactive in the other large screens. Only some compounds are listed: those with a hit (about 13% of all), similar ones and a draw of the others. Unless noted, calls follow the shape of the dose curve; as a rule, active = well fitted curve in the direction sought with a large enough effect; inconclusive = small, poorly fitted or top-dose-only effect, or another doubt; inactive = no such curve, though single readings can be large; an effect the other way counts as inactive or inconclusive.

CSc1ccc(C(=S)N2CCN(Cc3ccccc3)CC2)cc1	ALDH1A1 inh 2.2µM, Sfp PPTase inh 14µM, G9a inh 32µM
O=Cc1ccc(C(=O)OCC(=O)N2CCCC2)cc1	none (no result: KDM4E inh, Lamin A splicing, ALDH1A1 inh)
Cc1ccc(C)c(Cn2c(=O)cc(C(F)(F)F)c3c(C)nn(C)c32)c1	Lamin A splicing inconclusive (no result: KDM4E inh, ALDH1A1 inh, Sfp PPTase inh)
COC(=O)c1sccc1S(=O)(=O)N(CC(=O)NCc1ccccc1)c1ccc(C)cc1	Lamin A splicing inconclusive (no result: KDM4E inh, ALDH1A1 inh, Sfp PPTase inh)
CC1(NC(=O)/C=C/c2nc3ccccc3s2)CCS(=O)(=O)C1 (stereo not given)	none (no result: KDM4E inh, Lamin A splicing, ALDH1A1 inh, miR-21 reporter, Sfp PPTase inh)
O=C(Cc1ccccc1F)NNC(=O)c1ccncc1	G9a inh inconclusive (no result: KDM4E inh, Lamin A splicing, ALDH1A1 inh)
O=S(=O)(c1ccc(F)c(F)c1)N1CCN(S(=O)(=O)c2cccs2)CC1	none (no result: KDM4E inh, Lamin A splicing, ALDH1A1 inh)
COCC(=O)N1CCC2(CCCN(c3ccccn3)C2)CC1	ALDH1A1 inh inconclusive (no result: KDM4E inh, Lamin A splicing, miR-21 reporter)
Cc1ccccc1CN1c2ccccc2-c2nc(SCC(=O)c3ccccc3)ncc2S1(=O)=O	none (no result: KDM4E inh, Lamin A splicing, ALDH1A1 inh, Sfp PPTase inh)
COc1ccc(C(=S)N2CCN(c3ccccc3C)CC2)cc1	Sfp PPTase inh inconclusive, G9a inh 8.9µM (no result: Lamin A splicing, ALDH1A1 inh)
CSc1ccc(C(=S)N2CCCCCC2)cc1	G9a inh 32µM (no result: KDM4E inh, Lamin A splicing, ALDH1A1 inh)
COc1cc(C(=S)N2CCCC2)cc(OC)c1O	Sfp PPTase inh 50µM, G9a inh 32µM
COc1ccc(C(=S)N2CCNCC2)cc1	none
CCN1CCN(C(=S)c2ccc(SC)cc2)CC1	ALDH1A1 inh inconclusive, Sfp PPTase inh 28µM, G9a inh 40µM
COc1ccc(-c2cn3nc(SCC(=O)Nc4ccc(C)c(Cl)c4)ccc3n2)cc1	Lamin A splicing inconclusive (no result: KDM4E inh, ALDH1A1 inh, Sfp PPTase inh)
Cc1cn(C2OC(COC(=O)c3ccccc3)C(O)C2Cl)c(=O)[nH]c1=O (stereo not given)	ALDH1A1 inh inconclusive, G9a inh 50µM (no result: Lamin A splicing)
COc1ccc(CCN2C(=O)N(c3ccc(C)cc3)C(=O)C2CC(=O)Nc2ccc(F)cc2)cc1 (stereo not given)	none (no result: KDM4E inh, Lamin A splicing, ALDH1A1 inh, Sfp PPTase inh)
CC(=O)N1CC[n+]2c(-c3ccc(Cl)cc3Cl)csc21	Lamin A splicing inconclusive, Sfp PPTase inh 32µM, G9a inh 13µM
O=C(O)c1ccc(-c2nc(-c3ccc(Cl)cc3Cl)cs2)cc1	KDM4E inh inconclusive, G9a inh inconclusive
O=C1C2=C(c3ccccc31)[N+](=O)[C@@H]1CCCC[C@@H]1N2[O-]	Lamin A splicing inconclusive, Sfp PPTase inh 56µM, G9a inh inconclusive
C=CCOC(=O)NC(c1ccc(F)c(F)c1)C(C(=O)CCl)C(=O)OC (stereo not given)	ALDH1A1 inh 10µM, Sfp PPTase inh inconclusive (no result: Lamin A splicing, miR-21 reporter, G9a inh)
O=C(NCCn1c(C(F)(F)F)nc2cc(C(F)(F)F)ccc21)[C@H]1CCCN1c1nc(CN2CCCCC2)cs1	G9a inh 71µM (no result: KDM4E inh, Lamin A splicing, ALDH1A1 inh)
O=C(O)C1Cc2ccccc2CN1C(=O)COc1ccc(Br)cc1 (stereo not given)	G9a inh 50µM
O=C(O)C1Cc2ccccc2CN1S(=O)(=O)c1ccccc1 (stereo not given)	G9a inh inconclusive (no result: ALDH1A1 inh)
O=C(O)C1Cc2ccccc2CN1C(=O)COc1ccc(Cl)cc1Cl (stereo not given)	G9a inh 25µM
O=C(O)C1Cc2ccccc2CN1C(=O)CCl (stereo not given)	ALDH1A1 inh inconclusive, G9a inh 8.9µM
COc1cccc(/C=C2\Oc3cc(OCC(=O)N4Cc5ccccc5C[C@H]4C(=O)O)ccc3C2=O)c1	none (no result: KDM4E inh, Lamin A splicing, ALDH1A1 inh, G9a inh)
Cc1cccc(C(C)C)c1NC(=O)C1CCCN1S(=O)(=O)c1cccc2nsnc12 (stereo not given)	none (no result: KDM4E inh, Lamin A splicing, ALDH1A1 inh, Sfp PPTase inh)
O=C(Cc1ccc(NC(=O)N2CCSc3ncccc32)cc1)NCc1cccc(Cl)c1	G9a inh inconclusive (no result: KDM4E inh, Lamin A splicing, ALDH1A1 inh, Sfp PPTase inh)
S=C(NCCOCCOCCNC(=S)Nc1ccccc1)Nc1ccccc1	Lamin A splicing inconclusive, ALDH1A1 inh 13µM
CCCCNC(=S)Nc1ccc(Oc2ccccc2)cc1	ALDH1A1 inh inconclusive, Sfp PPTase inh 50µM (no result: Lamin A splicing)
S=C(NCCNC(=S)Nc1ccccc1)Nc1ccccc1	G9a inh inconclusive (no result: KDM4E inh, Lamin A splicing, ALDH1A1 inh)
CCCNC(=S)Nc1ccc(Oc2ccccc2)cc1	none
O=C(NC(C(=O)N/N=C/c1cccnc1)c1n[nH]c(=O)c2ccccc12)c1ccccc1 (stereo not given)	none (no result: Lamin A splicing, ALDH1A1 inh, G9a inh)
